Reference: patent US6274368A

Tested on: RDX degrading enzymic activity (partially purified extract)
Assay: Nitrite / formaldehyde release from explosives by partially purified extract
Conditions: 4 M urea, 5 mM DTT

O=[N+]([O-])N1CN([N+](=O)[O-])CN([N+](=O)[O-])C1
release of nitrite compared to spontaneous breakdown over the pH range (26 μg partially purified protein, 0.3 mM RDX, 37° C., 10 minutes, FIG. 6): significantly increases the release of nitrite
amounts of formaldehyde and nitrite released (0.15 mM RDX, Tricine pH 8.5, 37° C., FIG. 7): similar

This is a selection: effects in other tests are not listed, and their absence says nothing.
